Data as given in US20250376468A1, “PYRAZOLO[1,5-a]PYRIDINE DERIVATIVES FOR TREATING TRPM3-MEDIATED DISORDERS” (Katholieke Universiteit Leuven, priority 2022, published 2025).

Amino acid sequences for entries named in this document (tags omitted). Residues count along the entry.
UniProt J9SQF3, 1-1709 isoform 12: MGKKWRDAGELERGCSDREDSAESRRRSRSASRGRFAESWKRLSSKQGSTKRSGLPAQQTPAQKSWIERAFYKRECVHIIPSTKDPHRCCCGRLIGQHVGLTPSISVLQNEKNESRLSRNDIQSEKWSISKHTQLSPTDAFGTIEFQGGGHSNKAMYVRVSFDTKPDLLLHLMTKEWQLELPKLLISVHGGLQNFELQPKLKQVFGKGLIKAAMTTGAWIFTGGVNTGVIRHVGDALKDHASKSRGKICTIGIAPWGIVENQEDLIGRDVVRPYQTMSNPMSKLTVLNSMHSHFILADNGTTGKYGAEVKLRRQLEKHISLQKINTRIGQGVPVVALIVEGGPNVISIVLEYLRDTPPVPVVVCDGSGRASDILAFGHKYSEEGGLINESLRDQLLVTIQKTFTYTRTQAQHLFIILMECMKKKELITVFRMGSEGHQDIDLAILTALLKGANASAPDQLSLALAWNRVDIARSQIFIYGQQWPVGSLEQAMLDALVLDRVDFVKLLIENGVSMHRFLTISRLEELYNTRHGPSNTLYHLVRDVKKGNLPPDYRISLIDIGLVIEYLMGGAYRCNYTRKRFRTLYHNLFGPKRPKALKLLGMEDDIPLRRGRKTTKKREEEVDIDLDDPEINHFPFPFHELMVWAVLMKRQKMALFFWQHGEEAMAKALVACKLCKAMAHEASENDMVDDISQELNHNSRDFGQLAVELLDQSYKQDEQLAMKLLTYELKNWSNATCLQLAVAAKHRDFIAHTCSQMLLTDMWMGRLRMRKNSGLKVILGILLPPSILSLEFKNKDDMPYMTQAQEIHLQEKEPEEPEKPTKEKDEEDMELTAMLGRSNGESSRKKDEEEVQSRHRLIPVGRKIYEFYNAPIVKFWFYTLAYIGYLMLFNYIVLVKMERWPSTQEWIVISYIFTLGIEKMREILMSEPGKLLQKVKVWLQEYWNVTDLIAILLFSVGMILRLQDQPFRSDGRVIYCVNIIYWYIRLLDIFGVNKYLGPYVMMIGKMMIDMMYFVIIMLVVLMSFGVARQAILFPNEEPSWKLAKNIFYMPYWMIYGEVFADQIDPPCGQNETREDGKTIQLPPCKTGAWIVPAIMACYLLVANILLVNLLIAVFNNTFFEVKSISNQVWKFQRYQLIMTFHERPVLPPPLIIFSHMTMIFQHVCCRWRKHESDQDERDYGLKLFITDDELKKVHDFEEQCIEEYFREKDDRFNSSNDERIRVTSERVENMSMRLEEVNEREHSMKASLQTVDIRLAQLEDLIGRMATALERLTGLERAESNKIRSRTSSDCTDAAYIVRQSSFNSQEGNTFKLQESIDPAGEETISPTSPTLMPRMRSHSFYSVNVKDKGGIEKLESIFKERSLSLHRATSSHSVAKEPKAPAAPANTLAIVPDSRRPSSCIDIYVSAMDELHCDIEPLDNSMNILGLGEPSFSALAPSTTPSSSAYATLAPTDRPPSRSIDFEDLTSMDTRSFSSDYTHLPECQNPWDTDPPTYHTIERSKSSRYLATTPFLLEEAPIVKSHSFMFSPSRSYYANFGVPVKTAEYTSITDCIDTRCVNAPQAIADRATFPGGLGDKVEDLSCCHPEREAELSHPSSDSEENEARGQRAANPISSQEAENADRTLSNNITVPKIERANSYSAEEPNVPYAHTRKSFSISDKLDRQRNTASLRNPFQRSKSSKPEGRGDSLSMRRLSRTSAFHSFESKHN

molecular target: mouse TRPM3α2 (mTRPM3) ion channel (Mus musculus, UniProt J9SQF3); experiment: TRPM3 ion channel driven Ca2+ uptake, Fluo-4 AM assay, stimulated with pregnenolone sulfate (50 μM); conditions: TRPM3 overexpressing flip-in HEK293 cells, PS 50 μM, 2.4 mM Ca2+
Protocol: In order to monitor the inhibition of the mouse TRPM3α2 (mTRPM3) ion channel by the compounds of the invention, a cellular system making use of an mTRPM3alpha2 or hTRPM3 overexpressing cell line (flip-in HEK293) was used. The TRPM3 channel was stimulated/opened with Pregnenolone sulfate (PS) (50 μM) which results in Ca^2+ influx.
For mTRPM3, the intracellular Ca^2+ was measured with a Calcium responsive dye, Fluor-4 AM ester (Invitrogen). Cells were cultured until a confluence of 80-90%, washed with Versene (Invitrogen) and detached from the surface by a short incubation with 0.05% Trypsin (Invitrogen). The […] was stopped by the addition of complete cell culture medium (DMEM, glutamax, 10% FCS, NEAA, Pen-Strep). Cells were collected and resuspended in Krebs buffer without Calcium at RT.
Prior the cell seeding (±2000 cells/well into a black, 384 well plate (Greiner)) the diluted compound was added in the assay plate, together with the PS dissolved in Krebs buffer containing Calcium. […] Directly after cell addition the plates were read on an Envision fluorescence reader (Perkin Elmer) by an Excitation of 485 nm and emission at 535 nm.
Channel inhibition was calculated compared to a non-PS stimulated control versus a condition stimulated with PS (50 μM) with vehicle. The ability of the compounds of the invention to inhibit this activity was determined as: Percentage inhibition=[1−((RFU determined for sample with test compound present−RFU determined for sample with positive control inhibitor) divided by (RFU determined in the presence of vehicle−RFU determined for sample with positive control inhibitor))]*100.
The activities of the Example compounds cpd 001-091 tested are depicted in the table below. All tested compounds show an activity in the Fluo-4 AM assay. The activity ranges A, B and C refer to IC50 values in the Fluo-4 AM assay as follows: “A”: IC50<1 μM; “B”: 1 μM≤IC50≤20 μM and “C”: IC50>20 μM.

IC50, < 1 µM:
Cc1ccc(COc2ccn3nc(C)c(C(=O)NC(C)(CO)C(N)=O)c3c2)c(F)c1 (single isomer, unassigned) [Cpd 028 - En1]
Cc1nn2ccc(OCc3ccccc3C(F)F)cc2c1C(=O)NC(C)(CO)C(N)=O (single isomer, unassigned) [Cpd 023 - En1]
Cc1nn2ccc(OCc3c(F)cccc3F)cc2c1C(=O)NC(C)(CO)C(N)=O (single isomer, unassigned) [Cpd 032 - En1]
Cc1nn2ccc(OCc3ccccn3)cc2c1C(=O)NC1(CO)CCNC1=O (single isomer, unassigned) [Cpd 091 - En1]

IC50, > 20 µM:
Cc1nn2ccc(OCc3ccccc3F)cc2c1C(=O)NC(C)(CO)C(=O)N(C)C (single isomer, unassigned) [Cpd 017 - En2]
Cc1ncsc1COc1ccn2nc(C)c(C(=O)NC3CCNC3)c2c1 (single isomer, unassigned)
Cc1nn2ccc(OCc3ccccn3)cc2c1C(=O)NC(CO)c1ccc(F)cc1 (single isomer, unassigned)
Cc1ccc(COc2ccn3nc(C)c(C(=O)NC(C)(CO)C(N)=O)c3c2)cn1 (single isomer, unassigned) [Cpd 021 - En2]
Cc1nn2ccc(OCc3ccccn3)cc2c1C(=O)NC(CO)Cc1ncccn1 (single isomer, unassigned)

IC50, 1 to 20 µM:
Cc1nn2ccc(OCc3ccc(F)cc3F)cc2c1C(=O)NC(C)(CO)C(N)=O (single isomer, unassigned) [Cpd 026 - En2]
Cc1nn2ccc(OCc3ccccn3)cc2c1C(=O)NCC(O)CC(F)(F)F (single isomer, unassigned) [Cpd 081 - En2]
Cc1nn2ccc(OCc3ccccc3F)cc2c1C(=O)NC(C)(CO)C(=O)N(C)C (single isomer, unassigned) [Cpd 017 - En1]
Cc1ncsc1COc1ccn2nc(C)c(C(=O)NC(C)(CO)CC(F)F)c2c1 (single isomer, unassigned) [Cpd 037 - En1]
Cc1nn2ccc(OCc3ccccn3)cc2c1C(=O)NC1CCNC1 (single isomer, unassigned) [Cpd 054 - En2]
Cc1ccc(COc2ccn3nc(C)c(C(=O)NC(C)(CO)C(N)=O)c3c2)c(F)c1 (single isomer, unassigned) [Cpd 028 - En2]
Cc1nn2ccc(OCc3ccccn3)cc2c1C(=O)NC(CO)c1ccn(C)n1 (single isomer, unassigned) [Cpd 087 - En2]
